# ARNT TACC3 PPI = disruptors of ARNT/TACC3 protein interaction, primary screen, biochemical, AlphaScreen, single concentration; hit rate 0.66% among 390,000; inhibition, % at 9.99 µM; AID 623870, 2012; AlphaScreen His-ARNT PAS-B/GST-TACC3 binding, luminescence; TACC3 fragment carries E629A point mutation;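 active means mean inhibition of replicates at least 50% and at least half of replicates each reaching 50%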;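 further: 0% = complete ARNT plus TACC3 wells and 100% = ARNT alone without TACC3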
# Vif inh = HIV Vif self-association inhibitors, primary screen, imaging, HEK293T, single point | HEK293T cells, Vif self-association by quenched fluorescence, 24 h | inhibition, % at 7.49 µM | hit rate 0.35% among 340,000 | AID 602346, 2012; in the data active means inhibition above about 50%, passing the limit was not always enough
# PglD DTNB = C. jejuni PglD acetyltransferase inhibitors, primary screen, biochemical, DTNB colorimetric, single point; AID 602405, 2012; purified PglD enzyme, DTNB colorimetric CoA detection; inhibition, % at 12.5 µM; UDP-N-acetylbacillosamine N-acetyltransferase PglD (Campylobacter jejuni); hit rate 0.098% among 360,000; in the data active means inhibition above about 16%, passing the limit was not always enough
# CAL PDZ FP-1 = CAL PDZ peptide-binding inhibitors, primary screen, biochemical, fluorescence polarization, Cer-tagged CAL PDZ, HTS | Golgi-associated PDZ and coiled-coil motif-containing protein (Homo sapiens), Q9HD26 | purified CAL PDZ, TMR-peptide fluorescence polarization, 1 h | inhibition, % at 20 µM | hit rate 0.02% among 330,000 | AID 504414, 2011;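 active means highest replicate inhibition of at least 40%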;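 further: plate controls were DMSO neutral control wells for no effect and unlabeled competitor peptide control wells for full effect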
#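 Test system: purified CerCALP PDZ construct; Compound dosing: one concentration, 20 µM compound; Also added: TMR-labelled reporter peptide T*-PRC34 bound in PDZ groove; Read-out: inhibition from polarization loss; Controls: unlabelled peptide and DMSO controls; Signal: FP readout, S and P plane fluorescence; Incubation: 1 h at RT.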
# Yeast UUG start-1 = alters start codon recognition fidelity in yeast. S. cerevisiae UUG-firefly luciferase reporter, luminescence/redox ratio. AID 602363. activity score, % at 18.7 µM. hit rate 0.13% among 350,000;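 active = replicate mean at a twofold rise or more, about +100% in these data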;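 note: firefly luciferase made from a UUG start codon reports start codon fidelity; reporter light over untreated wells divided by growth signal over untreated wells; some hits fall short of that in this replicate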
# CAL PDZ FP-2 = untagged CAL PDZ binding inhibitors, primary screen, biochemical, fluorescence polarization, HTS; purified CAL PDZ, TMR-peptide fluorescence polarization, 1 h; inhibition, % at 24.9 µM; hit rate 0.92% among 300,000; AID 602252, 2012;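 active means mean inhibition of at least 30% with at least half of replicates also reaching 30%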;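 further: 0% = DMSO neutral control and 100% = excess unlabeled competitor peptide PRC23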
# Yeast UUG start-2 = enhancers of UUG start codon usage in yeast, dose response, S. cerevisiae, UUG firefly luciferase, cherry-pick, set 2 | activation, % at 38 µM | shares compounds with Yeast UUG start-1 | 540 tested, under 10 active | luminescence, 4 h; 100% means double the DMSO signal;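 active means signal increase whose fitted curve reaches an absolute level of 40 at a concentration under 10 µM; inactive means activity opposite to the expected increase, or the rest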
# * = called active by the depositor; i = inactive; / = no result given. Hits are enriched below; roughly 1.6% of the tested compounds scored in any of these assays.
# Assay codes: A = ARNT TACC3 PPI; B = Vif inh; C = PglD DTNB; D = CAL PDZ FP-1; E = Yeast UUG start-1; F = CAL PDZ FP-2; G = Yeast UUG start-2
> COC(=O)C[C@H]1C[C@@H]2c3cc(NC(=O)CC4CC4)ccc3O[C@@H]2[C@@H](CO)O1
  A: 3; B: /; C: -2; D: /; E: 119*; F: /; G: i
> O=C(Nc1ccc2c(c1)[C@@H]1C[C@@H](CC(=O)N3CCc4ccccc4C3)O[C@@H](CO)[C@@H]1O2)Nc1ccccc1F
  A: -20; B: /; C: -2; D: /; E: 61*; F: /; G: i
> COc1ccc(NC(=O)Nc2ccc3c(c2)[C@H]2C[C@H](CC(=O)NCC4CC4)O[C@H](CO)[C@H]2O3)cc1
  A: -4; B: /; C: -1; D: /; E: -2; F: /; G: /
> O=C(Nc1ccc(C(F)(F)F)cc1)Nc1ccc2c(c1)[C@H]1C[C@H](CC(=O)N3CCc4ccccc4C3)O[C@@H](CO)[C@H]1O2
  A: -3; B: /; C: 0; D: /; E: /; F: /; G: /
> O=C(C[C@@H]1C[C@H]2c3cc(NC(=O)NC4CCCCC4)ccc3O[C@H]2[C@@H](CO)O1)NCc1ccccn1
  A: 9; B: /; C: -2; D: /; E: -22; F: /; G: /
> COc1ccc(NC(=O)Nc2ccc3c(c2)[C@@H]2C[C@@H](CC(=O)NCC4CC4)O[C@@H](CO)[C@@H]2O3)cc1
  A: -4; B: /; C: 1; D: /; E: 57*; F: /; G: i
> CN1CCN(C(=O)C[C@H]2C[C@@H]3c4cc(NC(=O)Nc5ccccc5F)ccc4O[C@@H]3[C@@H](CO)O2)CC1
  A: 5; B: /; C: 4; D: /; E: 7; F: /; G: /
> C[C@@H]1CN([C@H](C)CO)C(=O)c2cc(NS(=O)(=O)c3ccc(Cl)cc3)ccc2O[C@@H](C)CCCCO[C@@H]1CN(C)C
  A: -5; B: /; C: -2; D: /; E: 18; F: /; G: /
> C[C@@H]1CN([C@H](C)CO)C(=O)c2cc(NS(C)(=O)=O)ccc2O[C@@H]1CN(C)Cc1ccc(C(=O)Nc2ccccc2N)cc1
  A: -5; B: /; C: 2; D: /; E: 4; F: /; G: /
> O=C(O)C[C@H]1C[C@H]2c3cc(NC(=O)c4ccc5c(c4)OCO5)ccc3O[C@H]2[C@@H](CO)O1
  A: 5; B: /; C: 0; D: /; E: 39*; F: /; G: i
> CCN(C(=O)c1cc(Cl)ccc1OC)c1ccccc1C
  A: -10; B: -14; C: -4; D: -1; E: 128*; F: -3; G: 4
> CNC[C@H]1Oc2ncc(-c3cncnc3)cc2C(=O)N([C@H](C)CO)C[C@@H]1C
  A: -6; B: /; C: 2; D: /; E: 4; F: /; G: /
> CC(=O)N1CCN(c2ccc([N+](=O)[O-])cc2)CC1
  A: -8; B: -2; C: /; D: 1; E: /; F: 0; G: 0
> CC(=O)OCC(=O)N1CCN(c2ccc([N+](=O)[O-])cc2)CC1
  A: -1; B: -3; C: /; D: 0; E: /; F: -5; G: -5
> CCOCC(=O)N1CCN(c2ccc([N+](=O)[O-])cc2)CC1
  A: -24; B: -8; C: -14; D: -2; E: 1; F: 1; G: -7

# Assay codes: A = ARNT TACC3 PPI; B = Vif inh; C = PglD DTNB; D = CAL PDZ FP-1; E = Yeast UUG start-1; F = CAL PDZ FP-2; G = Yeast UUG start-2
> CCCN1C[C@H](C)[C@H](OC)CN(C)C(=O)c2ccc(NC(=O)C3CCC3)cc2OC[C@H]1C
  A: 4; B: /; C: -3; D: /; E: -12; F: /; G: /
> C[C@@H]1CCCCO[C@H](CN(C)C)[C@@H](C)CN([C@@H](C)CO)C(=O)c2cc(NC(=O)Cc3ccccc3)ccc2O1
  A: -3; B: /; C: 0; D: /; E: 10; F: /; G: /
> CCCCn1c(N)c(N(CCOC)C(=O)C2CC(=O)N(c3ccc(CC)cc3)C2)c(=O)[nH]c1=O (stereo not drawn)
  A: -10; B: -5; C: 3; D: 0; E: 129*; F: -5; G: -6
> Cc1noc(C)c1S(=O)(=O)N(C)C[C@H]1OCCCC[C@@H](C)Oc2ccc(NC(=O)C3CCCCC3)cc2C(=O)N([C@H](C)CO)C[C@H]1C
  A: 0; B: /; C: -2; D: /; E: 9; F: /; G: /
> N#C/C(=C\Nc1ccc2c(c1)OCCO2)C(=O)NCc1ccco1
  A: -4; B: -1; C: -3; D: 0; E: 102*; F: -5; G: -4
> COc1ccc(NC(=O)c2ccc(NS(=O)(=O)c3c(C)noc3C)cc2)cc1OC
  A: -5; B: /; C: 8; D: 0; E: 1; F: -3; G: /
> COc1ccccc1NC(=O)c1ccc(NS(=O)(=O)c2c(C)noc2C)cc1
  A: 3; B: /; C: -6; D: -2; E: 442*; F: 3; G: -4
> CCC(=O)N1C[C@@H](O)COC[C@H]2O[C@@H](CC(=O)NCC3CCCCC3)CC[C@@H]21
  A: 9; B: /; C: -1; D: /; E: 112*; F: /; G: i
> CCC(=O)N1C[C@@H](O)COC[C@@H]2O[C@@H](CC(=O)NCC3CCCCC3)CC[C@H]21
  A: 1; B: /; C: 6; D: /; E: -5; F: /; G: /
> Cc1ccc(S(=O)(=O)N2CCOCC2)cc1C(=O)OC(C)C(=O)NC1CCCC1 (stereo not drawn)
  A: -6; B: -1; C: 2; D: 1; E: 119*; F: 1; G: -5
> Cc1ccc(S(=O)(=O)N2CCOCC2)cc1C(=O)NC1CCCCCC1
  A: /; B: -7; C: 3; D: -1; E: 15; F: /; G: /
> COc1ccc(CN(C)C[C@@H]2Oc3ccc(NC(=O)Nc4ccc5c(c4)OCO5)cc3C(=O)N([C@H](C)CO)C[C@@H]2C)cc1
  A: 8; B: /; C: 9; D: /; E: 3; F: /; G: /
> CO[C@@H]1CN(C)C(=O)c2cc(NC(=O)c3cnccn3)ccc2OC[C@H](C)N(CCc2ccccc2)C[C@@H]1C
  A: 4; B: /; C: 0; D: /; E: -10; F: /; G: /
> CC(C)(C)Cc1c(-c2ccc(C#N)cc2)nc2ccc(Cl)cn12
  A: /; B: -2; C: -5; D: /; E: 165*; F: /; G: -6
> COc1ccc(-c2cnc3c(c2)C(=O)N([C@@H](C)CO)C[C@H](C)[C@H](CN(C)C(=O)NC2CCCC2)O3)cc1
  A: -7; B: /; C: -2; D: /; E: 12; F: /; G: /

# In a second layout: results already given
ARNT TACC3 PPI | Vif inh | PglD DTNB | CAL PDZ FP-1 | Yeast UUG start-1 | CAL PDZ FP-2 | Yeast UUG start-2 | smiles
8 | / | 9 | / | 3 | / | / | COc1ccc(CN(C)C[C@@H]2Oc3ccc(NC(=O)Nc4ccc5c(c4)OCO5)cc3C(=O)N([C@H](C)CO)C[C@@H]2C)cc1
4 | / | -3 | / | -12 | / | / | CCCN1C[C@H](C)[C@H](OC)CN(C)C(=O)c2ccc(NC(=O)C3CCC3)cc2OC[C@H]1C
-3 | / | 0 | / | 10 | / | / | C[C@@H]1CCCCO[C@H](CN(C)C)[C@@H](C)CN([C@@H](C)CO)C(=O)c2cc(NC(=O)Cc3ccccc3)ccc2O1

# Next part
# Assay codes: A = ARNT TACC3 PPI; B = Vif inh; C = PglD DTNB; D = CAL PDZ FP-1; E = Yeast UUG start-1; F = CAL PDZ FP-2; G = Yeast UUG start-2
> C[C@H](CO)N1C[C@H](C)[C@@H](CN(C)CC2CCOCC2)Oc2ncc(-c3cccc(F)c3)cc2C1=O
  A: /; B: /; C: /; D: /; E: 157*; F: /; G: i
> CCCNC(=O)N(C)C[C@@H]1Oc2ncc(-c3ccc(C(=O)N(C)C)cc3)cc2C(=O)N([C@@H](C)CO)C[C@H]1C
  A: 4; B: /; C: -4; D: /; E: 104*; F: /; G: i
> COc1ccccc1-c1cnc2c(c1)C(=O)N([C@@H](C)CO)C[C@H](C)[C@@H](CN(C)C(=O)c1cccnc1)O2
  A: -22; B: /; C: 0; D: /; E: 172*; F: /; G: i
> COc1ccc(-c2cnc3c(c2)C(=O)N([C@@H](C)CO)C[C@H](C)[C@@H](CN(C)C(=O)NC2CCCC2)O3)cc1
  A: -14; B: /; C: -2; D: /; E: 140*; F: /; G: i
> CCC(=O)N1C[C@H](O)COC[C@H]2O[C@H](CC(=O)NCc3ccccc3Cl)CC[C@@H]21
  A: 7; B: /; C: 0; D: /; E: /; F: /; G: /
> COc1ccc(-c2cnc3c(c2)C(=O)N([C@@H](C)CO)C[C@H](C)[C@H](CN(C)C(=O)Cc2ccncc2)O3)cc1
  A: 3; B: /; C: -3; D: /; E: -3; F: /; G: /
